In paper PMC10034449, “FDA-approved Abl/EGFR/PDGFR kinase inhibitors show potent efficacy against pandemic and seasonal influenza A virus infections of human lung explants” (iScience, 2023):
“And” between values parts separate entries of the source, which are not always exact repeats. Equal values may be shown once.

What was measured:
[1] = test system: NL11; format: cell-based, influenza A virus
[2] = test system: A/Netherlands/602/09 (NL09)
[3] = test system: A/Netherlands/241/11 (NL11)

Row | Compound | reduction of infectivity (anti-NP staining normalized to tissue area) [1] | relative infectivity [2] [%] | further results
1 | CC#CC(=O)N1CCC[C@H]1c1nc(-c2ccc(C(=O)Nc3ccccn3)cc2)c2c(N)nccn12 [AC, Acalabrutinib] | > 50% and ~50% | – | –
2 | COc1cc(Nc2c(C#N)cnc3cc(OCCCN4CCN(C)CC4)c(OC)cc23)c(Cl)cc1Cl [BO, Bosutinib] | > 50% and ~50% | – | –
3 | CNC(=O)c1ccc(Nc2ncc(C(F)(F)F)c(NCc3nccnc3N(C)S(C)(=O)=O)n2)cc1 [DF, Defactinib] | > 50% and ~50% | 180 | –
4 | C=CC(=O)N1CCC[C@@H](n2nc(-c3ccc(Oc4ccccc4)cc3)c3c(N)ncnc32)C1 [IB, Ibrutinib] | – | – | effect on infectivity [1]: limited effects on infectivity; increase of infectivity [1]: ~7%
5 | Cc1cn(-c2cc(NC(=O)c3ccc(C)c(Nc4nccc(-c5cccnc5)n4)c3)cc(C(F)(F)F)c2)cn1 [NI, Nilotinib] | – | – | effect on infectivity [1]: limited effects on infectivity
6 | N#CC[C@H](C1CCCC1)n1cc(-c2ncnc3[nH]ccc23)cn1 [RX, Ruxolitinib] | – | 203 | relative infectivity [3]: 116%
7 | CN1CCN(CCOc2cc(OC3CCOCC3)c3c(Nc4c(Cl)ccc5c4OCO5)ncnc3c2)CC1 [SA, Saracatinib] | > 50% and ~50% | 90 | –
8 | C[C@@H]1CCN(C(=O)CC#N)C[C@@H]1N(C)c1ncnc2[nH]ccc12 [TF, Tofacitinib] | – | 217 | relative infectivity [3]: 112%
